Test results from the NIST ThermoML archive (doi:10.1016/j.jct.2007.09.007).
Numbers after ± are expanded uncertainties.

Conditions: 101.33 kPa, Liquid

- mass density (288.15 K): 772.33 ± 0.85 kg/m3
- mass density (293.15 K): 768.07 ± 0.86 kg/m3
- mass density (298.15 K): 763.76 ± 0.87 kg/m3
- mass density (303.15 K): 759.43 ± 0.88 kg/m3
Structure (SMILES): CCCCOCCCC [dibutyl ether]
